The record followed here is US12172993B2 (priority 2018, dated 2024).

Read-outs that look alike come from different tables or passages of the source.

Data set [1] can be described thus: human liver microsomal stability.
For data set [2] the following is noted: male CD1 mice.
A short description of data set [3]: mouse liver microsomal stability.

Consider `Cc1nc(Nc2ncc(C(=O)Nc3c(C)csc3Cl)s2)cc(N2CCN(CCO)CC2)n1` [Compound C7, N-(2-chloro-4-methylthiophen-3-yl)-2-((6-(4-(2-hydroxyethyl)piperazin-1-yl)-2-methylpyrimidin-4-yl)amino)thiazole-5-carboxamide], for which the “Half-life” value is on record as 5 min in data set [1] and 12 min in data set [3]. Besides, the “t1/2” value in data set [2] (1 mg/kg iv) is 72 min; in data set [2] (30 mg/kg po), 198 min.
